Laboratory results published in US6143932A, “Selectively N-alkylated peptidomimetic combinatorial libraries and compounds therein” (dated 2000).

Target: α-glucosidase from bakers yeast
Assay: α-Glucosidase inhibition assay
Conditions: read-out: α-Glucosidase Inhibition Assay IC50; p-nitrophenyl-α-D-glucopyranoside as chromogenic substrate, 96-well format

## CCN(C(=O)[C@@H](N)Cc1ccccc1)[C@H](CC(C)C)C(=O)NCc1ccc2ccccc2c1
  IC50: 398 µM

## CCC(C)[C@@H](C(=O)NCc1ccc2ccccc2c1)N(CC)C(=O)[C@@H](N)Cc1ccccc1 (some centres unmarked)
  IC50: 610 µM
